Patent US20250195530A1, “POLQ INHIBITORS” (ASTRAZENECA AB, priority 2022, published 2025)

The chains behind the UniProt entries cited, without tags or fusion partners. Residues count along the entry.
UniProt O75417, 1780-2590: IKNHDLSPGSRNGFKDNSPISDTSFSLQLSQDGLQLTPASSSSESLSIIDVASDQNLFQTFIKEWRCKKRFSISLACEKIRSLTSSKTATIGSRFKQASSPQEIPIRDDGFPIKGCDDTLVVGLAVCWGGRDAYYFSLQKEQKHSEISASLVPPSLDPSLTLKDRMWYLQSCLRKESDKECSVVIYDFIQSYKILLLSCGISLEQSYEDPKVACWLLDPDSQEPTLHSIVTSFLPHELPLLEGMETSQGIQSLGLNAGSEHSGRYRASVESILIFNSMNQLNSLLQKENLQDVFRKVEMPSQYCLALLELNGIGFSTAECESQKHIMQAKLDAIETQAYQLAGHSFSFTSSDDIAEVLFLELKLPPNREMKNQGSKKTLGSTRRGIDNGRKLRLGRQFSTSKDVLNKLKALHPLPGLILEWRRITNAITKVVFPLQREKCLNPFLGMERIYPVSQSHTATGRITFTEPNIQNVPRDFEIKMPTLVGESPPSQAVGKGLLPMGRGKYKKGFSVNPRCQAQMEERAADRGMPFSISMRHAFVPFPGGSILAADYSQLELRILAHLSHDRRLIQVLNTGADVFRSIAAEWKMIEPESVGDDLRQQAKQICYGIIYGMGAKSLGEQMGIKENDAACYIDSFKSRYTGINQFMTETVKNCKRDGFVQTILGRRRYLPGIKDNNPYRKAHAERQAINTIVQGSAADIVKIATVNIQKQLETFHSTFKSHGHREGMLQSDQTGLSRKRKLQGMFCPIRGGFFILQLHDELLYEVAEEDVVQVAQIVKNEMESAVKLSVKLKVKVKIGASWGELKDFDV

Biological target: isolated polymerase domain (I1780-V2590) of DNA polymerase theta (Polθ) (Homo sapiens (Human), UniProt O75417)
Experiment: biochemical

Row | SMILES | IC50
1 | CC1(Oc2ncnc3c2nc(-c2ccc(CC(N)=O)cc2Cl)n3Cc2nc(C3CC3)no2)CC1 [Example T23, 2-(3-chloro-4-(9-((3-cyclopropyl-1,2,4-oxadiazol-5-yl)methyl)-6-(1-methylcyclopropoxy)-9H-purin-8-yl)phenyl)acetamide] | 79.4 nM
2 | Cc1ccnc(Cn2c(-c3ccc(N4CCNC4=O)cc3Cl)nc3c(OC4(C)CC4)ncnc32)c1 [Example T107, 1-(3-chloro-4-(6-(1-methylcyclopropoxy)-9-((4-methylpyridin-2-yl)methyl)-9H-purin-8-yl)phenyl)imidazolidin-2-one] | 6.31 nM
3 | Cc1ccnc(Cn2c(-c3ccc(C(=O)N4CCOCC4)cc3Cl)nc3c(OC4(C)CC4)ncnc32)c1 [Example T315, (3-chloro-4-(6-(1-methylcyclopropoxy)-9-((4-methylpyridin-2-yl)methyl)-9H-purin-8-yl)phenyl)(morpholino)methanone] | 79.4 nM
4 | CNC(=O)c1ccc(-c2nc3c(OC4(C)CC4)ncnc3n2Cc2cc(C)ccn2)c(Cl)c1 [Example T52, 3-chloro-N-methyl-4-(6-(1-methylcyclopropoxy)-9-((4-methylpyridin-2-yl)methyl)-9H-purin-8-yl)benzamide] | 2.51 nM
5 | Cc1ccc(F)c(Cn2c(-c3ccc(OCCC(C)C(=O)O)cc3Cl)nc3c(OC4(C)CC4)ncnc32)c1 (racemic) [Example T417, 4-(3-chloro-4-(9-(2-fluoro-5-methylbenzyl)-6-(1-methylcyclopropoxy)-9H-purin-8-yl)phenoxy)-2-methylbutanoic acid] | 3.16 nM
6 | CNC(=O)COc1ccc(-c2nc3c(OC4(C)CC4)ncnc3n2Cc2ncc(C)s2)c(Cl)c1 [Example T28, 2-(3-chloro-4-(6-(1-methylcyclopropoxy)-9-((5-methylthiazol-2-yl)methyl)-9H-purin-8-yl)phenoxy)-N-methylacetamide] | 10 nM
7 | Cc1ccnc(Cn2c(-c3ccc(CCN4CC(O)C4)cc3Cl)nc3c(OC4(C)CC4)ncnc32)c1 [Example T355, 1-(3-chloro-4-(6-(1-methylcyclopropoxy)-9-((4-methylpyridin-2-yl)methyl)-9H-purin-8-yl)phenethyl)azetidin-3-ol] | 6.31 nM
8 | Cc1cnc(Cn2c(-c3ccc(OC[C@H]4CCCN4C)cc3Cl)nc3c(OC4(C)CC4)ncnc32)s1 [Example T240, (R)-2-((8-(2-chloro-4-((1-methylpyrrolidin-2-yl)methoxy)phenyl)-6-(1-methylcyclopropoxy)-9H-purin-9-yl)methyl)-5-methylthiazole] | 5.01 nM
9 | COc1ccnc(Cn2c(-c3ccc(CC(N)=O)cc3Cl)nc3c(OC4(C)CC4)ncnc32)c1 [Example T63, 2-(3-chloro-4-(9-((4-methoxypyridin-2-yl)methyl)-6-(1-methylcyclopropoxy)-9H-purin-8-yl)phenyl)acetamide] | 25.1 nM
10 | CC(CCOc1ccc(-c2nc3c(OC4(C)CC4)ncnc3n2Cc2cc(Cl)cc(Cl)c2)c(Cl)c1)C(=O)O (racemic) [Example T275, 4-(3-chloro-4-(9-(3,5-dichlorobenzyl)-6-(1-methylcyclopropoxy)-9H-purin-8-yl)phenoxy)-2-methylbutanoic acid] | 6.31 nM
11 | CC(COc1ccc(-c2nc3c(OC4(C)CC4)ncnc3n2Cc2cc(Cl)ccc2F)c(Cl)c1)CC(=O)O (racemic) [Example U45, 4-(3-chloro-4-(9-(5-chloro-2-fluorobenzyl)-6-(1-methylcyclopropoxy)-9H-purin-8-yl)phenoxy)-3-methylbutanoic acid] | 5.01 nM
12 | CC(CCCc1ccc(-c2nc3c(OC4(C)CC4)ncnc3n2Cc2ccccc2C#N)c(Cl)c1)C(=O)O (racemic) [Example U12, 5-(3-chloro-4-(9-(2-cyanobenzyl)-6-(1-methylcyclopropoxy)-9H-purin-8-yl)phenyl)-2-methylpentanoic acid] | 7.94 nM
13 | Cc1cnc(Cn2c(-c3ccc(OC4CCCN(C)CC4)cc3Cl)nc3c(OC4(C)CC4)ncnc32)s1 (single isomer, unassigned) [Example T389, 2-((8-(2-chloro-4-((1-methylazepan-4-yl)oxy)phenyl)-6-(1-methylcyclopropoxy)-9H-purin-9-yl)methyl)-5-methylthiazole] | 5.01 nM
14 | CC(C)Oc1ccc2c(c1)nc(-c1ccc(OCCC3CCCN3C)cc1Cl)n2Cc1ccccc1 (single isomer, unassigned) [Example A9, 1-benzyl-2-(2-chloro-4-(2-(1-methylpyrrolidin-2-yl)ethoxy)phenyl)-5-isopropoxy-1H-benzo[d]imidazole] | 3.16 nM
15 | Cc1ccnc(Cn2c(-c3ccc(C(=O)N4CCC[C@H]4C#N)cc3Cl)nc3c(OC4(C)CC4)ncnc32)c1 [Example T404, (S)-1-(3-chloro-4-(6-(1-methylcyclopropoxy)-9-((4-methylpyridin-2-yl)methyl)-9H-purin-8-yl)benzoyl)pyrrolidine-2-carbonitrile] | 39.8 nM
16 | CC(CCOc1ccc(-c2nc3c(OC4(C)CC4)ncnc3n2Cc2ccccc2Br)c(Cl)c1)C(=O)O (racemic) [Example T278, 4-(4-(9-(2-bromobenzyl)-6-(1-methylcyclopropoxy)-9H-purin-8-yl)-3-chlorophenoxy)-2-methylbutanoic acid] | 10 nM

Row | SMILES | IC50
17 | Cc1ccnc(Cn2c(-c3ccc(OCCCN4CC(O)C4)cc3Cl)nc3c(OC4(C)CC4)ncnc32)c1 [Example T513, 1-(3-(3-chloro-4-(6-(1-methylcyclopropoxy)-9-((4-methylpyridin-2-yl)methyl)-9H-purin-8-yl)phenoxy)propyl)azetidin-3-ol] | 5.01 nM
18 | COc1c(Cl)cccc1Cn1c(-c2ccc(OCCC(C)C(=O)O)cc2Cl)nc2c(OC3(C)CC3)ncnc21 (racemic) [Example U3, 4-(3-chloro-4-(9-(3-chloro-2-methoxybenzyl)-6-(1-methylcyclopropoxy)-9H-purin-8-yl)phenoxy)-2-methylbutanoic acid] | 12.6 nM
19 | CO[C@H]1CCN(C(=O)COc2ccc(-c3nc4c(OC5(C)CC5)ncnc4n3Cc3cc(C)ccn3)c(Cl)c2)C1 [Example T577, (S)-2-(3-chloro-4-(6-(1-methylcyclopropoxy)-9-((4-methylpyridin-2-yl)methyl)-9H-purin-8-yl)phenoxy)-1-(3-methoxypyrrolidin-1-yl)ethan-1-one] | 7.94 nM
20 | CNC(=O)Cc1ccc(-c2nc3c(OC4(C)CC4)ncnc3n2Cc2cc(C)ccn2)c(Cl)c1 [Example T113, 2-(3-chloro-4-(6-(1-methylcyclopropoxy)-9-((4-methylpyridin-2-yl)methyl)-9H-purin-8-yl)phenyl)-N-methylacetamide] | 7.94 nM
21 | Cc1ccnc(Cn2c(-c3ccc(OC4CNC4)cc3Cl)nc3c(OC4(C)CC4)ncnc32)c1 [Example T111, 8-(4-(azetidin-3-yloxy)-2-chlorophenyl)-6-(1-methylcyclopropoxy)-9-((4-methylpyridin-2-yl)methyl)-9H-purine] | 6.31 nM
22 | Cc1ccnc(Cn2c(-c3ccc(C(=O)N4CC5CC(C4)N5)cc3Cl)nc3c(OC4(C)CC4)ncnc32)c1 [Example T427, (3,6-diazabicyclo[3.1.1]heptan-3-yl)(3-chloro-4-(6-(1-methylcyclopropoxy)-9-((4-methylpyridin-2-yl)methyl)-9H-purin-8-yl)phenyl)methanone] | 25.1 nM
23 | CC(CCOc1ccc(-c2nc3c(OC4(C)CC4)ncnc3n2Cc2c(Cl)cccc2Br)c(Cl)c1)C(=O)O (racemic) [Example T259, 4-(4-(9-(2-bromo-6-chlorobenzyl)-6-(1-methylcyclopropoxy)-9H-purin-8-yl)-3-chlorophenoxy)-2-methylbutanoic acid] | 12.6 nM
24 | Cc1cc(Cn2c(-c3ccc(CC(N)=O)cc3Cl)nc3c(OC4(C)CC4)ncnc32)ncn1 [Example T19, 2-(3-chloro-4-(6-(1-methylcyclopropoxy)-9-((6-methylpyrimidin-4-yl)methyl)-9H-purin-8-yl)phenyl)acetamide] | 631 nM
25 | Cc1ccnc(Cn2c(-c3ccc(N4CCNCCC4=O)cc3Cl)nc3c(OC4(C)CC4)ncnc32)c1 [Example T338, 4-(3-chloro-4-(6-(1-methylcyclopropoxy)-9-((4-methylpyridin-2-yl)methyl)-9H-purin-8-yl)phenyl)-1,4-diazepan-5-one] | 31.6 nM
26 | CC1(Oc2ncnc3c2nc(-c2ccc(OCCCN4CC[C@H](O)C4)cc2Cl)n3Cc2cc(Cl)ccn2)CC1 [Example T503, (S)-1-(3-(3-chloro-4-(9-((4-chloropyridin-2-yl)methyl)-6-(1-methylcyclopropoxy)-9H-purin-8-yl)phenoxy)propyl)pyrrolidin-3-ol] | 5.01 nM
27 | C[C@H](CCOc1ccc(-c2nc3c(OC4(C)CC4)ncnc3n2Cc2cccc(Cl)c2)c(Cl)c1)C(=O)O (single isomer, unassigned; isomer 1) [Example 34, 4-(3-Chloro-4-(9-(3-chlorobenzyl)-6-(1-methylcyclopropoxy)-9H-purin-8-yl)phenoxy)-2-methylbutanoic acid (Isomer 1)] | 5.01 nM
28 | Cc1ccnc(Cn2c(-c3ccc(C(=O)N4CCNCC4)cc3Cl)nc3c(OC4(C)CC4)ncnc32)c1 [Example T337, (3-chloro-4-(6-(1-methylcyclopropoxy)-9-((4-methylpyridin-2-yl)methyl)-9H-purin-8-yl)phenyl)(piperazin-1-yl)methanone] | 15.8 nM
29 | CN1CCCC1CCOc1ccc(-c2nc3c(OC4(C)CC4)ncnc3n2Cc2ccccc2)c(Cl)c1 (single isomer, unassigned) [Example D4, 9-benzyl-8-(2-chloro-4-(2-(1-methylpyrrolidin-2-yl)ethoxy)phenyl)-6-(1-methylcyclopropoxy)-9H-purine] | 5.01 nM
30 | CC1(Oc2ncnc3c2nc(-c2ccc(OCCN4CC(O)C4)cc2Cl)n3Cc2cc(Cl)ccn2)CC1 [Example T206, 1-(2-(3-chloro-4-(9-((4-chloropyridin-2-yl)methyl)-6-(1-methylcyclopropoxy)-9H-purin-8-yl)phenoxy)ethyl)azetidin-3-ol] | 10 nM
31 | C[C@@H](CCOc1ccc(-c2nc3c(OC4(C)CC4)ncnc3n2Cc2cc(Cl)ccc2C#N)c(Cl)c1)C(=O)O [Example U82, (S)-4-(3-chloro-4-(9-(5-chloro-2-cyanobenzyl)-6-(1-methylcyclopropoxy)-9H-purin-8-yl)phenoxy)-2-methylbutanoic acid] | 2.51 nM
